Data taken from ChEMBL document CHEMBL5365501, “Brain-penetrant cyanoindane and cyanotetralin inhibitors of G2019S-LRRK2 kinase activity” (Bioorg Med Chem Lett, 2023).

Chains of the proteins cited; added tags and fusions are not shown. Lines headed by an entry give the natural chain unless they say otherwise; changes in a name come on top.
UniProt P22303: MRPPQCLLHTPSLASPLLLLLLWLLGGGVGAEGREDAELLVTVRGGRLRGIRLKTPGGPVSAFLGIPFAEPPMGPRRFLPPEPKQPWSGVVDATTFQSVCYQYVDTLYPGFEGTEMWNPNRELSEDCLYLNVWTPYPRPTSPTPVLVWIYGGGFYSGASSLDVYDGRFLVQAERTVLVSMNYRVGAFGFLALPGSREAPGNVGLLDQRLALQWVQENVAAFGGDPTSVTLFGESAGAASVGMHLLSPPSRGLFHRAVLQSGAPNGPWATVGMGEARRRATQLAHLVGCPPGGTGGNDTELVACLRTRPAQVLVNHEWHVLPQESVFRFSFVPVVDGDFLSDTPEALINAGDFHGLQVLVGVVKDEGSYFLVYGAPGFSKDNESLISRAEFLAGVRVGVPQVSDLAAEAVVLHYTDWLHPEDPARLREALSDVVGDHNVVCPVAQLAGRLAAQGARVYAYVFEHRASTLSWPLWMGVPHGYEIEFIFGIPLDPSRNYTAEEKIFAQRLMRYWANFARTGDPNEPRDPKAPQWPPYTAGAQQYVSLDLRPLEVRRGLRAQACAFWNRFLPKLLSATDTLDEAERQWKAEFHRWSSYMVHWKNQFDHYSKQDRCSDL
UniProt P41145: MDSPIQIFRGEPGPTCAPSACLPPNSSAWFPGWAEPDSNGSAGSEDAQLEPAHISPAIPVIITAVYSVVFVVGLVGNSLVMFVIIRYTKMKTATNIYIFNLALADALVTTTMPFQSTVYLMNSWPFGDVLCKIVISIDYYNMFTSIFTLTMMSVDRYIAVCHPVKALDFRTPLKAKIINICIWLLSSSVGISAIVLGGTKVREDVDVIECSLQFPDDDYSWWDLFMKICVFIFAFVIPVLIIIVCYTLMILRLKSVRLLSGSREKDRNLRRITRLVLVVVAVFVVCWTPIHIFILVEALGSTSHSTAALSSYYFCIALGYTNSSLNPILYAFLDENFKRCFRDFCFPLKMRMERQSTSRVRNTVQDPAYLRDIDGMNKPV
UniProt P35348: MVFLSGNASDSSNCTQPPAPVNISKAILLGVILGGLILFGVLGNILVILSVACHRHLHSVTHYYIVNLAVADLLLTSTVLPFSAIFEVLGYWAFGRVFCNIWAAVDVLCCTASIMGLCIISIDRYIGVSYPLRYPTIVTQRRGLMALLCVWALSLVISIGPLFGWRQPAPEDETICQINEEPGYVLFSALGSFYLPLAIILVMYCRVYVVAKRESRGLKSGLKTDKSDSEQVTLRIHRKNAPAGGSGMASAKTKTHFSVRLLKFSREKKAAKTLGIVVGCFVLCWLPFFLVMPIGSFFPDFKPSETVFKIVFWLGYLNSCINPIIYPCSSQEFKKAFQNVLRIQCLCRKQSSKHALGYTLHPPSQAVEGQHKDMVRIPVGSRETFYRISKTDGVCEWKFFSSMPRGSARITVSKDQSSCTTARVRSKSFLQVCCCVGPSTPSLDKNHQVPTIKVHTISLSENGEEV
UniProt P35354, whole entry: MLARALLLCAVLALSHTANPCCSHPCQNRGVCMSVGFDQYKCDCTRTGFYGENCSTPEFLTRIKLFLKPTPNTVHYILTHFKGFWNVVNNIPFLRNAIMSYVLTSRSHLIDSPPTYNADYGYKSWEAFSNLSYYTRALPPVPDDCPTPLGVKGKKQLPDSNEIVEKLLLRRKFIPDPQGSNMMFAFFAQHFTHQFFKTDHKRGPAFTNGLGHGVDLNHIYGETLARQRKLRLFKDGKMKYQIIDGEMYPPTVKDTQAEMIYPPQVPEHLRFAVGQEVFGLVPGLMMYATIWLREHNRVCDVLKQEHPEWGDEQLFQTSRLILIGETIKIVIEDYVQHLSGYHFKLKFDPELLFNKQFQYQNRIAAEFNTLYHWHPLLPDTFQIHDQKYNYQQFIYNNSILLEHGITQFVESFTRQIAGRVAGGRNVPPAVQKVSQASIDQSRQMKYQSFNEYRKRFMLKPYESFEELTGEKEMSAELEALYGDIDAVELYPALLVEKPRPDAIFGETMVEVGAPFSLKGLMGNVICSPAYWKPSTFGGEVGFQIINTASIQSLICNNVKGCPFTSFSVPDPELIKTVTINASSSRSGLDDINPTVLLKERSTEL
UniProt P35372, whole entry: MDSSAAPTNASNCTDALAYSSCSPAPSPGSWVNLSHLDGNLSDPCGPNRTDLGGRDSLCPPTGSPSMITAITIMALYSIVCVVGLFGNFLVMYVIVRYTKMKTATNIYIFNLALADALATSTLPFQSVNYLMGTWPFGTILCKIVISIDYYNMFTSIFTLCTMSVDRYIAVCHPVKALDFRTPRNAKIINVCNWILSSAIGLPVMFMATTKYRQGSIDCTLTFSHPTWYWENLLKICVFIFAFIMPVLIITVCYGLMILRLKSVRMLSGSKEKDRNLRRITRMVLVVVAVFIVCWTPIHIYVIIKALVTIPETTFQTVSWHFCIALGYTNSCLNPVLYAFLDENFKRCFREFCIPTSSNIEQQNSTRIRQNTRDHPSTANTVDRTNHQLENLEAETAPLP
UniProt P08908, whole entry: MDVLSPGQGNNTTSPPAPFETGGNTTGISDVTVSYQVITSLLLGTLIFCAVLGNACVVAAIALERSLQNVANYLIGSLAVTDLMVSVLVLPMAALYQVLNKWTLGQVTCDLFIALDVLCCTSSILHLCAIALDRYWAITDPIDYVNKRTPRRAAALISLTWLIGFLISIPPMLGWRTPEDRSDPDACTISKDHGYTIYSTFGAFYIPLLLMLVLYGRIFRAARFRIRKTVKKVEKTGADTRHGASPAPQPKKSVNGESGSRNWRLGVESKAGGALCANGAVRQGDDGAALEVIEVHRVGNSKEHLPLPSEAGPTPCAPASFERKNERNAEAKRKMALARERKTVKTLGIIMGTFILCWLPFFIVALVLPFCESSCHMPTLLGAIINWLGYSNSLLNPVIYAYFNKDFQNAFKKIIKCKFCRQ
UniProt O15399: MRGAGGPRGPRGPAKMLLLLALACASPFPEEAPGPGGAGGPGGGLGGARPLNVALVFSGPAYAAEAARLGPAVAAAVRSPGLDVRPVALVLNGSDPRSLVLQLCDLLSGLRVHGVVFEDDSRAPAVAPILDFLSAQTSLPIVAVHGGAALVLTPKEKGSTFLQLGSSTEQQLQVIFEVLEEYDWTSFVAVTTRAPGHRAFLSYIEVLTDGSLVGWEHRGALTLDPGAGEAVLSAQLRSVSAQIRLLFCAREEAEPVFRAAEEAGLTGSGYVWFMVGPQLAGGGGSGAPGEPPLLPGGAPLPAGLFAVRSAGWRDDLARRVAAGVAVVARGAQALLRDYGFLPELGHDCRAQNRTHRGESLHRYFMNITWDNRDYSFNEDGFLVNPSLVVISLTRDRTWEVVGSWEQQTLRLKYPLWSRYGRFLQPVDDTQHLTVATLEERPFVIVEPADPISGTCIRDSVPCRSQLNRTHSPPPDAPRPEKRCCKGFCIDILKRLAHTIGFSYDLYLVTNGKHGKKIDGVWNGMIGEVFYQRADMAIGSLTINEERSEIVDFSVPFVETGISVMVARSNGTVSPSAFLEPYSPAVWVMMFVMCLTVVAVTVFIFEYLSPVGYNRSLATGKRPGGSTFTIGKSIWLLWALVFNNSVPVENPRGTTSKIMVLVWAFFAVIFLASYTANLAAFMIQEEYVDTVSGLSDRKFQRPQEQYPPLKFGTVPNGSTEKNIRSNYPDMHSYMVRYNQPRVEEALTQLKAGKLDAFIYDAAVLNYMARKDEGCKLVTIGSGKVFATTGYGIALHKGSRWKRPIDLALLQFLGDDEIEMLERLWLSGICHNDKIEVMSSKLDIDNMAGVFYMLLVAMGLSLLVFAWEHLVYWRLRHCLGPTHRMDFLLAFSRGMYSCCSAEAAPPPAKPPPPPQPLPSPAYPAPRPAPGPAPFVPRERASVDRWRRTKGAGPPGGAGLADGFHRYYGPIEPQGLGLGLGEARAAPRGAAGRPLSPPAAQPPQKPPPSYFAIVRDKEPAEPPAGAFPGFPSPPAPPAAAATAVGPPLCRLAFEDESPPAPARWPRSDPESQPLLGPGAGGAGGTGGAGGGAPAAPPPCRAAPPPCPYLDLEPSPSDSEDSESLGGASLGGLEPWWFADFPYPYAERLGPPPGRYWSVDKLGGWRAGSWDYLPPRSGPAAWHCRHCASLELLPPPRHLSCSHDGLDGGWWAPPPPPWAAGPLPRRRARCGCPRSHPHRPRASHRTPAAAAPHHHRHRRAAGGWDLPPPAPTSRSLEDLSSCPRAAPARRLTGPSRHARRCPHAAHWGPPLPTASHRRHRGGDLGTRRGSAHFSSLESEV
UniProt O60391: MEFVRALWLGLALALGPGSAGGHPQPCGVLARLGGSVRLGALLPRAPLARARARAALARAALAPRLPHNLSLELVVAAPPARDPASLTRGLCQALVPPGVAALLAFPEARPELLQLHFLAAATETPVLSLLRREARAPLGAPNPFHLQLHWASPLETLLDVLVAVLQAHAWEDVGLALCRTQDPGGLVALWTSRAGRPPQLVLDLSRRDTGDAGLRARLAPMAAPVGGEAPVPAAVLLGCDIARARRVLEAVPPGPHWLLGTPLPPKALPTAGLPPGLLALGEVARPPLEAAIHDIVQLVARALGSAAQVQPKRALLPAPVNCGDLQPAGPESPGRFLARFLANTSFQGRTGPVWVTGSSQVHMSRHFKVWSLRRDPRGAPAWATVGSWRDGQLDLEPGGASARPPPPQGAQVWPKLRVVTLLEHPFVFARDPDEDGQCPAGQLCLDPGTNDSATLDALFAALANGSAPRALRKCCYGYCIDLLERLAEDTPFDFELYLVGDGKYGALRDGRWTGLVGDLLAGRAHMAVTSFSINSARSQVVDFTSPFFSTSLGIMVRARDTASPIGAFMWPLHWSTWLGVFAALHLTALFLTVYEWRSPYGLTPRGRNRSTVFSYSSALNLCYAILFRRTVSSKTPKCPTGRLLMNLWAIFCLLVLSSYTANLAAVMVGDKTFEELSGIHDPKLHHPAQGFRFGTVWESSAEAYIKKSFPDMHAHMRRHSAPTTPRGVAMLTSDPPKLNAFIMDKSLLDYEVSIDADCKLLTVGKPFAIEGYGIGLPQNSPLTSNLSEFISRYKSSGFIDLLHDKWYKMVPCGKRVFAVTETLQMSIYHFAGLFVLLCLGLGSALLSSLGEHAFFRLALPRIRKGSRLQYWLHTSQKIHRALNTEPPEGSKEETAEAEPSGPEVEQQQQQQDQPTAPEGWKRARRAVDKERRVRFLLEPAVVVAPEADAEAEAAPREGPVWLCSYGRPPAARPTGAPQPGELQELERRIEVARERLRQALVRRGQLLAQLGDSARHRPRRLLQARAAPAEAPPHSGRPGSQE
UniProt P32238, whole entry: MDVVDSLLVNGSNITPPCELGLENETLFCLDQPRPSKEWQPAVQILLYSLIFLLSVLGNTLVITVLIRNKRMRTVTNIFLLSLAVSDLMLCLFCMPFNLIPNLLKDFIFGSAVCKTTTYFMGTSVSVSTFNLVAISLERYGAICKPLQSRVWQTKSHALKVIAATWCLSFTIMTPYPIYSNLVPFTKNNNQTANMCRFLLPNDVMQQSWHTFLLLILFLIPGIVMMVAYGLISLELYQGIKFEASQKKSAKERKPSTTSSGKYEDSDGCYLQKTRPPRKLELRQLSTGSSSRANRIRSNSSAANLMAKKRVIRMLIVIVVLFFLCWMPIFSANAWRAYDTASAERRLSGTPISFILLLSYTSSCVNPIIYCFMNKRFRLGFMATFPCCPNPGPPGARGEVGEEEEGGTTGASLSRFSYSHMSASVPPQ
UniProt P35367, whole entry: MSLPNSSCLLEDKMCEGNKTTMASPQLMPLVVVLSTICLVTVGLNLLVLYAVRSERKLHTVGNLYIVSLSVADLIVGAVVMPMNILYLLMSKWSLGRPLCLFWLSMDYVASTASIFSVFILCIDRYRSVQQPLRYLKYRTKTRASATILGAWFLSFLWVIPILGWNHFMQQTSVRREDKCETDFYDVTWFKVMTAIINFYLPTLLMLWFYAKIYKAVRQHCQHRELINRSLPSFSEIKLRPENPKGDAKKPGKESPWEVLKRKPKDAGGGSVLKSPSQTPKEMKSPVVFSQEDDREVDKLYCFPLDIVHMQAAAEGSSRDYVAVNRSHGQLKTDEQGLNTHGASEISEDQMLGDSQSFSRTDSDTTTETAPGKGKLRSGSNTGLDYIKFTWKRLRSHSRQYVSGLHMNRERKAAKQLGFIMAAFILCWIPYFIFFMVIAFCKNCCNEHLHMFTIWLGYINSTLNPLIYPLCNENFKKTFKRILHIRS
UniProt P37288, whole entry, looked up: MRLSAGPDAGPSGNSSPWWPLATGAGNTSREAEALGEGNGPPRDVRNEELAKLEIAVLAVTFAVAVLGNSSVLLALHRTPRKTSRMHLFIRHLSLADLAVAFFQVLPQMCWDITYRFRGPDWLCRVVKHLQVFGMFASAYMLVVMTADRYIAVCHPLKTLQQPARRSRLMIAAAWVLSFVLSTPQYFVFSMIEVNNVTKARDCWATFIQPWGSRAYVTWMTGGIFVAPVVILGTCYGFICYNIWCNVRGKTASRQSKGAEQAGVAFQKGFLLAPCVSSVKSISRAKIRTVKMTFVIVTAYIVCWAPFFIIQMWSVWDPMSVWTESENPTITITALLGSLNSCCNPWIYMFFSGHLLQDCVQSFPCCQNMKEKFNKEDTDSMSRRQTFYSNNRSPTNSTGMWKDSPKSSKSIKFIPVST

How the values were obtained:
[1] = target: 5-hydroxytryptamine receptor 1B (Homo sapiens) (UniProt P28222); test: Displacement of [3H]GR125743 from human recombinant 5-HT1B receptor assessed as inhibition at 10 uM by scintillation analysis relative to control
[2] = target: Acetylcholinesterase (Homo sapiens) (UniProt P22303); test: Inhibition of human recombinant acetylcholinesterase using acetylthiocholine as substrate at 10 uM by spectrophotometric analysis relative to control
[3] = target: Alpha-2A adrenergic receptor (Homo sapiens) (UniProt P08913); test: Displacement of radioligand from human recombinant alpha 2A adrenergic receptor assessed as inhibition at 10 uM by scintillation analysis relative to control
[4] = target: Sodium-dependent dopamine transporter (Homo sapiens) (UniProt Q01959); test: Displacement of radioligand from human recombinant DAT transporter assessed as inhibition at 10 uM by scintillation analysis relative to control
[5] = target: 5-hydroxytryptamine receptor 2B (Homo sapiens) (UniProt P41595); test: Displacement of radioligand from human recombinant 5-HT2B receptor assessed as inhibition at 10 uM by scintillation analysis relative to control
[6] = target: Adenosine receptor A2a (Homo sapiens) (UniProt P29274); test: Displacement of [3H]CGS-21680 from human recombinant A2A receptor assessed as inhibition at 10 uM by scintillation analysis relative to control
[7] = target: Sodium-dependent serotonin transporter (Homo sapiens) (UniProt P31645); test: Inhibition of human 5-HT transporter at 10 uM by antagonist radioligand based assay relative to control
[8] = target: Delta-type opioid receptor (Homo sapiens) (UniProt P41143); test: Inhibition of human DOP at 10 uM by agonist radioligand based assay relative to control
[9] = target: cGMP-inhibited 3',5'-cyclic phosphodiesterase 3A (Homo sapiens) (UniProt Q14432); test: Inhibition of human recombinant PDE3A using FAM-cAMP as substrate at 10 uM by spectrofluorimetric analysis relative to control
[10] = target: 3',5'-cyclic-AMP phosphodiesterase 4D (Homo sapiens) (UniProt Q08499); test: Inhibition of human recombinant PDE4D2 using FAM-cAMP as substrate at 10 uM spectrofluorimetric analysis relative to control
[11] = target: Sodium-dependent noradrenaline transporter (Homo sapiens) (UniProt P23975); test: Displacement of radioligand human recombinant norepinephrine transporter assessed as inhibition at 10 uM by scintillation analysis relative to control
[12] = target: Glucocorticoid receptor (Homo sapiens) (UniProt P04150); test: Displacement of [3H]dexamethasone from human GR receptor assessed as inhibition at 10 uM by scintillation analysis relative to control
[13] = target: Beta-2 adrenergic receptor (Homo sapiens) (UniProt P07550); test: Displacement of [3H]CGP-12177 from human recombinant beta 2 adrenergic receptor assessed as inhibition at 10 uM by scintillation analysis relative to control
[14] = target: Kappa-type opioid receptor (Homo sapiens) (UniProt P41145); test: Displacement of [3H]U-69593 from human KOP assessed as inhibition at 10 uM in by scintillation analysis relative to control
[15] = target: Alpha-1A adrenergic receptor (Homo sapiens) (UniProt P35348); test: Displacement of [3H]Prazosin from human alpha 1A adrenergic receptor assessed as inhibition at 10 uM by scintillation analysis relative to control
[16] = target: Prostaglandin G/H synthase 2 (Homo sapiens) (UniProt P35354); test: Inhibition of human COX2 using arachidonic acid and ADHP as substrate at 10 uM by spectrofluorimetric analysis relative to control
[17] = target: Mu-type opioid receptor (Homo sapiens) (UniProt P35372); test: Displacement of [3H]DAMGO from human recombinant MOP assessed as inhibition at 10 uM by scintillation analysis relative to control
[18] = target: 5-hydroxytryptamine receptor 1A (Homo sapiens) (UniProt P08908); test: Displacement of [3H]8-OH-DPAT from human recombinant 5-HT1A receptor assessed as inhibition at 10 uM by scintillation analysis relative to control
[19] = target: 5-hydroxytryptamine receptor 2A (Homo sapiens) (UniProt P28223); test: Displacement of [125I] (+/-) DOI from human recombinant 5-HT2A assessed as inhibition at 10 uM by scintillation analysis relative to control
[20] = target: Glutamate [NMDA] receptor (Homo sapiens) (UniProt Q05586+Q12879+Q13224+O15399+O60391+Q14957+Q8TCU5); test: Inhibition of NMDA receptor (unknown origin) at 10 uM by antagonist radioligand based assay relative to control; format: protein-complex assay
[21] = target: Cholecystokinin receptor type A (Homo sapiens) (UniProt P32238); test: Displacement of [125I]CCK-8 from human recombinant CCK1 receptor assessed as inhibition at 10 uM by scintillation analysis relative to control
[22] = target: Histamine H1 receptor (Homo sapiens) (UniProt P35367); test: Displacement of [3H]pyrilamine from human recombinant histamine H1 receptor assessed as inhibition at 10 uM by scintillation analysis relative to control
[23] = target: Tyrosine-protein kinase Lck (Homo sapiens) (UniProt P06239); test: Inhibition of human Lck kinase at 10 uM relative to control
[24] = target: Cannabinoid receptor 2 (Homo sapiens) (UniProt P34972); test: Displacement of [3H]WIN 55212-2 from human recombinant CB2 receptor assessed as inhibition at 10 uM by scintillation analysis relative to control
[25] = target: Muscarinic acetylcholine receptor M3 (Homo sapiens) (UniProt P20309); test: Displacement of radioligand from human recombinant muscarinic M3 receptor assessed as inhibition at 10 uM by scintillation analysis relative to control
[26] = target: Vasopressin V1a receptor (Homo sapiens) (UniProt P37288); test: Displacement of [3H]AVP from human recombinant V1a receptor assessed as inhibition at 10 uM by scintillation analysis relative to control
[27] = target: Prostaglandin G/H synthase 1 (Homo sapiens) (UniProt P23219); test: Inhibition of human recombinant COX1 using arachidonic acid and ADHP as substrate at 10 uM by spectrofluorimetric analysis relative to control
[28] = target: Endothelin-1 receptor (Homo sapiens) (UniProt P25101); test: Displacement of [125I]endothelin-1 from human recombinant ETA receptor assessed as inhibition at 10 uM by scintillation analysis relative to control
[29] = target: Neuronal acetylcholine receptor; alpha4/beta2 (Homo sapiens) (UniProt P17787+P43681); test: Inhibition of human neuronal alpha4beta2 receptor at 10 uM by agonist radioligand based assay relative to control; format: protein-complex assay
[30] = target: Histamine H2 receptor (Homo sapiens) (UniProt P25021); test: Displacement of [125I]APT from human recombinant histamine H2 receptor assessed as inhibition at 10 uM by scintillation analysis relative to control

`N#Cc1ccc2c(c1)CC[C@@H]2Nc1ccc2[nH]nc(-c3cnoc3)c2c1` showed an inhibition (INH) [1] of -7.2 E^-1%, an inhibition [2] of -7.66% and an inhibition [3] of 2.3%. For the same compound, the inhibition [4] was 78.1%, the inhibition [5] was 68.8% and the inhibition [6] was 56%. For the same compound, the inhibition [7] was 51%, the inhibition [8] was 48.9% and the inhibition [9] was 37%. The inhibition [10] was 36.6%, the inhibition [11] was 34% and the inhibition [12] was 33.4%. It also gave an inhibition [13] of 32.8%, an inhibition [14] of 32.7% and an inhibition [15] of 32%. It also gave an inhibition [16] of 31.7%, an inhibition [17] of 26.1% and an inhibition [18] of 19.5%. For the same compound, the inhibition [19] was 17.7%, the inhibition [20] was 14% and the inhibition [21] was 14%. For the same compound, the inhibition [22] was 5.72%, the inhibition [23] was 4.17% and the inhibition [24] was 2.62%. The inhibition [25] was 1.3%, the inhibition [26] was 0.524% and the inhibition [27] was -5.72%. It also gave an inhibition [28] of -6.93%, an inhibition [29] of -9.92% and an inhibition (INH) [30] of -1.82 E^1%.
